Reference: US10736831B2, “Oral care compositions” (Colgate-Palmolive Company, priority 2015, dated 2020)

Tested on: five species mix of representative oral bacterial species
Test: resazurin cell viability assay (bacterial metabolism/viability)
Conditions: aqueous test solutions; incubated 1 hour at 37° C.; resazurin 50 μg/ml; fluorescence 560/590 nm
Description: A five species mix of representative oral bacterial species was used to simulate the complex bacterial flora of the oral environment. A bacterial mix comprising Actinomyces viscosus, Lactobacillus casei, Streptococcus oralis, Fusobacteriaum nucleatum and Veillonella parvulal was incubated with the compound under investigation for 1 hour at 37° C., neutralized, washed and stained with 50 μg/ml resazurin solution. When viable bacteria are incubated with resazurin, the blue non-fluorescent dye is reduced by the bacteria to pink fluorescent resorufin. Fluorescence of the test sample is read at 560 nm excitation/590 nm emission and compared to the fluorescence of a standardized mixture of live and dead bacteria to determine the percentage of the initial population that is viable after incubation.
In order to minimize the effects of formula excipients, dilute 1:100 and 1:10 dentifrice slurries of formulations in water were used in the assay. As before, the test compound (as a dilute slurry) was incubated with the bacteria for 1 hour at 37° C., neutralized, washed and stained with 50 μg/ml resazurin solution. The percentage of viable bacteria was then determined.

zinc coceth sulfate [0.5 wt. % ZCS]
% bacteria viable following treatment: 10.79%
